Results on one substance are retold here after US20030134390A1.

The experiment concerns the target human IL-21 receptor, full-length, expressed on cells (human) (UniProt Q9HBE5). The experiment can be described thus: cell-based or functional assay.

Turning to “mouse IL-21 (from UniProt Q9ES17 18-146) (ligand)”, the STAT reporter (luciferase) response of BaF3/KZ134/IL-21 receptor cells (fold over media-only control) was 40.
